Results on 1 compound are retold here after BindingDB's records for doi:10.1016/j.jmb.2004.09.032 (Celera, 2004).

The target in the test is Urokinase-type plasminogen activator [179-431,I214M,N322A,S371A] (Homo sapiens, UniProt P00749, I214M/N322A/S371A). In words: Enzyme Assay and Determination of the Inhibition Constants.

For the compound `N=C(N)c1ccc2[nH]c(-c3cccc(-c4ccccc4)c3O)cc2c1` [CRA-8696], the Ki – broadly, a measure of affinity in units of concentration, obtained from inhibition or displacement – worked out at 380 nM.
